Source: patent US11828750B2, “Material for screening for compound acting on ION channel and use thereof” (PUBLIC UNIVERSITY CORPORATION NAGOYA CITY UNIVERSITY, priority 2016, dated 2023)
pIC50: −log10 of the molar value.

Sequences of proteins named here, by UniProt entry; tags and fusion partners are left off.
UniProt Q9NPC2, whole entry, species assumed: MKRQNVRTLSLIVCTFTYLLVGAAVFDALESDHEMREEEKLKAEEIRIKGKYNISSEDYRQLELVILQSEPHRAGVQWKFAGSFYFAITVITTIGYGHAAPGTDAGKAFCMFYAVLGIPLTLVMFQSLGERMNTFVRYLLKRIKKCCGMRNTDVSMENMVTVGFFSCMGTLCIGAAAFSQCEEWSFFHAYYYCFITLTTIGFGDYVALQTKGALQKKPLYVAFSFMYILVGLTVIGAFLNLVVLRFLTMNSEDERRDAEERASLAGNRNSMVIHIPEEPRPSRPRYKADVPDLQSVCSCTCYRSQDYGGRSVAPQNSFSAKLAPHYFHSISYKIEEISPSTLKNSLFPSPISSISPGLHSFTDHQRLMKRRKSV

Assays:
TASK-3 [1] = target: T1, TASK-3 (Homo sapiens, UniProt Q9NPC2); details: literature value (Coburn et al. 2012; Zou et al. 2010); read-out: literature / reported IC50 for TASK-3; cited from earlier work
TASK-3 [2] = target: T1, TASK-3; test: Cell death assay in TASK-3 test cells (hTASK-3 transiently expressing Kir 2.1#mutated Nav cells); assay type: cell-based; set-up: expressed in transfected cells; host or cells: HEK293 Kir 2.1 + mutated Nav cells, transient expression via baculovirus vector
Method: With the TREK-1 test cells, the culture medium was replaced with measurement buffer (137 mM NaCl, 5.9 mM KCl, 2.2 mM CaCl2, 1.2 mM MgCl2, 14 mM glucose, 10 mM HEPES (pH 7.4 with NaOH), this also applies in the following) and BaCl2 was added to provide 200 μM Ba ion, a Kir 2.1 inhibitor. This was followed by incubation for approximately 12 hours under conditions of 37° C., atmospheric pressure, and 5% CO2 and monitoring of cell death. […] The measurement of cell death was carried out using the MTT method with reference to a paper by the present inventors (Yamazaki, D., et al., Am J Physiol Cell Physiol 300, C75-86, 2011). […]

ML365
pIC50 (TASK-3 [1]): 6.32
induction of cell death by inhibitor (TASK-3 [2]; in the presence of 200 μM Ba ion): cell death was observed in a concentration-dependent regime
concentration above which a sharp increase in the induction of cell death occurred (TASK-3 [2]; in the presence of Ba ion): > 100 nM
